Literature values as cited in patent US20080070828A1, “Ace-Inhibitory Whey Hydrolysates” (FRIESLAND BRANDS B.V., priority 2004, published 2008).

Chains of the proteins cited; added tags and fusions are not shown. Lines headed by an entry give the natural chain unless they say otherwise; changes in a name come on top.
UniProt P02754: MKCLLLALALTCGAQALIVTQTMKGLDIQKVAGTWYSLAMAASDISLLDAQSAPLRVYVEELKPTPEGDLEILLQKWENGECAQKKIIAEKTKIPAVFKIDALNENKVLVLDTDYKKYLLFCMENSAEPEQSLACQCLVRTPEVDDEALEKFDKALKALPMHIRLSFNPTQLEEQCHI

Test system: ACE
Conditions: ACE-inhibitory peptides from BLG; for IC50: read-out: Literature IC50

Literature IC50 | IC50 | Substance
97 µg/mL | 350 µM | f(104-105): ACE-inhibitory peptide from BLG (LF; UniProt P02754 120-121, looked up, fragment)
86 µg/mL | 122 µM | f(102-103): ACE-inhibitory peptide from BLG (YL; UniProt P02754 118-119, looked up, fragment)
